From ChEMBL document CHEMBL1147769, “Synthesis and biological activity of the first cyclic biphalin analogues” (Bioorg Med Chem Lett, 2006)

Sequences of proteins named here, by UniProt entry; tags and fusion partners are left off.
UniProt P41143, whole entry: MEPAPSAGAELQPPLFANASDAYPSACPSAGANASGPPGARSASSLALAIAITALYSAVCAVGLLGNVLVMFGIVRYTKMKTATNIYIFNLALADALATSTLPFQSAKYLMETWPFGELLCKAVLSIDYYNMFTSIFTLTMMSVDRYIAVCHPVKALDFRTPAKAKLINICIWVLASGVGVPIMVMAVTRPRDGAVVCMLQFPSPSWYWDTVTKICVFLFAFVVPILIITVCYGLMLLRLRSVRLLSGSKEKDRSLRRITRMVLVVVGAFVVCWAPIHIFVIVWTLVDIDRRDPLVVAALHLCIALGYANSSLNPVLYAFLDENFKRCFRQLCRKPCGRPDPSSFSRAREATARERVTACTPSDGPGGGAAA

Target: Delta-type opioid receptor (Homo sapiens, UniProt P41143)
Assay: Agonistic efficacy at human delta opioid receptor by [35S]GTP-gammaS binding assay
Format: functional
In short: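 Cells expressing human DOR (delta) or rat MOR (mu) incubated with increasing test-compound concentrations and 0.1 nM [35S]GTP-gamma-S in assay buffer, duplicates, 90 min at 30 °C. Stopped by vacuum filtration through GF/B filters pretreated with assay buffer, then four washes with ice-cold 15 mM Tris/120 mM NaCl pH 7.4. Bound radioactivity counted by liquid scintillation after overnight extraction; Emax read as agonist-stimulated binding.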

## C[C@@H](NC(=O)[C@@H](N)Cc1ccc(O)cc1)C(=O)NCC(=O)N[C@@H](Cc1ccccc1)C(=O)NNC(=O)[C@H](Cc1ccccc1)NC(=O)CNC(=O)[C@@H](C)NC(=O)[C@@H](N)Cc1ccc(O)cc1 [BIPHALIN]
  IC50: 2.5 nM
